Experimental data as given in patent US20050049220A1, “Dosing regimen for Flaviviridae therapy” (priority 2003, published 2005).

How the values were obtained:
Huh-7 cells = test: Cellular rRNA levels / cytotoxicity in HCV replicon cells; conditions: IFN tested at 100 IU/ml; 4 days; listed as IFN-α-2a
From the text: In a typical setting, a compound might reduce both the host RNA polymerase activity and the replicon-encoded polymerase activity. Therefore, quantification of rRNA (or any other host RNA polymerase I product) or beta-actin mRNA (or any other host RNA polymerase II) and comparison with RNA levels of the no-drug control is a relative measurement of the effect of the test compound on host RNA polymerases.
With the availability of both the HCV ΔCt data and the rRNA ΔCt, a specificity parameter can be introduced. This parameter is obtained by subtracting both ΔCt values from each other.
IFN-α-2a and ribavirin were tested over a range of concentrations for their ability to reduce the HCV RNA levels in exponentially growing replicon cells after 4 days of exposure as described (Stuyver, L. et al. “A ribonucleoside analogue that blocks the replication of bovine viral diarrhea and hepatitis C viruses in culture” Antimicrob. Agents Chemother. 2003, 47, 244-254).
Gemcitabine was dissolved in DMSO and added to the culture media of a cellular model system of Huh7 cells harboring self-replicating HCV RNA, at final concentrations ranging from 0.1 to 50 dM. […]

HCV replicon [1] = test: HCV replicon assay: HCV RNA by Q-RT-PCR, 4 days exposure; type: cell-based, hepatitis C virus (HCV); conditions: for Corrected HCV RNA log10 reduction: corrected for rRNA
Protocol: Antiviral screening assays can be done in the same media without G418 as follows: in order to keep cells in logarithmic growth phase, seed cells in a 96-well plate at low density, for example 1000 cells per well. Add the test compound immediate after seeding the cells and incubate for a period of 3 to 7 days at 37° C. in an incubator. Media is then removed, and the cells are prepared for total nucleic acid extraction (including replicon RNA and host RNA). Replicon RNA can then be amplified in a Q-RT-PCR protocol, and quantified accordingly. […] This value is called DeltaCt (ΔCt or DCt).
This value is called DeltaCt (ΔCt or dCt).

[2] = test system: HCV replicon cells (Huh-7); test: 7-day cell growth dynamics, trypan-blue cell count
Protocol: FIG. 2 is a graphical depiction of the dynamics of cell growth and HCV RNA levels after exposure to control anti-HCV compounds. HCV replicon cells were seeded at approximately 10^4 cells per well in a 24-well plate. Over a 7-day period, cells were counted daily, and rRNA and HCV RNA were quantified by Q-RT-PCR. A: IFN-α-2a at 100 IU/ml; B: ribavirin at 100 μM. ●: cell proliferation in absence of compound; ◯: cell proliferation in presence of compound; ▾: HCV RNA levels in untreated cells; ∇: HCV RNA levels in the presence of compound. The curves shown are averages of 3 independent experiments.
Therefore, experiments were conducted to monitor HCV RNA levels and the cell growth dynamics over a 7-day period.
The dynamics of HCV replicon cells exposed to these inhibitors (at their EC90 value) was monitored over a 7-day period.

HCV replicon RNA [3] = test: Replicon RNA copy number per cell; type: cell-based, hepatitis C virus (HCV); conditions: 100 IU/ml; at day 3
Protocol: FIG. 4 is a graphical depiction of the log10 changes for replicon RNA levels per cell. The plots were obtained from data collected in FIGS. 2 and 3, in which log10 changes for cell count and replicon RNA levels were subtracted from each other. A. Control antiviral compounds. ●: no drug control; ▾: IFN-α-2a at 100 IU/ml; ▪: ribavirin at 100 μM. B. Selection of the most important anti-metabolites. ●: no drug control; ▾: dFdC at 50 nM; ▪: CP-C at 25 μM; ♦: CPE-C at 2.5 μM; ▴: PALA at 10 μM; ●: PZF at 5 μM.
To express the specificity of the antiviral action of the control compounds versus the anti-metabolites, the log10 change in replicon RNA copy number per cell and per day was calculated from the above experiments. IFN-α-2a reduced the copy numbers per cell by approximately 1.6 log10 at day 3, after which a new steady state level was achieved on days 4-7 (FIG. 4A).

HCV replicon [4] = conditions: after 96 hr of incubation; as previously reported by Stuyver et al.; cited from earlier work
HCV replicon cells = test: Prevention studies with natural ribo- or 2′-deoxy nucleosides; type: cell-based, human; conditions: test compound at 96 h EC90 value; nucleosides at 50 μM
HCV replicon RNA [5] = test: 7-day dynamics of HCV RNA levels; type: cell-based, hepatitis C virus (HCV)

## Interferon-α-2a: recombinant interferon alfa-2a (Roferon-A, Hoffmann-Roche), positive control
Huh-7 cells
  log10 RNA reduction, rRNA: minimal effect
HCV replicon [1]; 96 h incubation
  Corrected HCV RNA EC90: 4.5 IU/ml
HCV replicon [1]; IFN tested at 100 IU/ml, 4 days
  log10 RNA reduction, HCV: 1.57 ± 0.26 log10
HCV replicon [1]; IFN tested at 100 IU/ml
  Corrected HCV RNA log10 reduction: 1.36 ± 0.37 log10
HCV replicon [1]; IFN tested at 100 IU/ml, listed as IFN-α-2a
  Corrected HCV RNA log10 reduction: 1.36±0.37 log10
[2]; 7-day period, at 96 h EC90 value (ribavirin 100 μM, IFN 100 IU/ml)
  effect on cell proliferation: grew significantly slower
[2]; 100 IU/ml, day 7, untreated 1.31±0.08
  cell growth, log10 increase from day 0: 1.07±0.06 log10
HCV replicon RNA [3]
  reduction of replicon RNA copy number per cell: approximately 1.6 log10
HCV replicon [4]
  corrected EC90 value: 4.5 IU/mL
HCV replicon cells
  prevention of antiviral and cytostatic effects by natural nucleosides: could not be prevented by any of the natural nucleosides
HCV replicon RNA [5]; 7-day period, at 96 h EC90 value (IFN 100 IU/ml)
  effect on HCV RNA levels: significant drop in HCV RNA levels
HCV replicon RNA [5]; 100 IU/ml, 7 days, control 1.79±0.4
  HCV RNA levels over the 7-day period: −0.53±0.4
